B1: Adenosine deaminase (Bos taurus), P56658 (protein)
chain: MAQTPAFNKPKVELHVHLDGAIKPETILYYGRKRGIALPADTPEELQNIIGMDKPLSLPEFLAKFDYYMPAIAGCREAVKRIAYEFVEMKAKDGVVYVEVRYSPHLLANSKVEPIPWNQAEGDLTPDEVVSLVNQGLQEGERDFGVKVRSILCCMRHQPSWSSEVVELCKKYREQTVVAIDLAGDETIEGSSLFPGHVKAYAEAVKSGVHRTVHAGEVGSANVVKEAVDTLKTERLGHGYHTLEDATLYNRLRQENMHFEVCPWSSYLTGAWKPDTEHPVVRFKNDQVNYSLNTDDPLIFKSTLDTDYQMTKNEMGFTEEEFKRLNINAAKSSFLPEDEKKELLDLLYKAYGMPSPASAEQCL
B2: Phosphoribosyl pyrophosphate synthase-associated protein 2 (Homo sapiens), O60256 (protein)
chain: MFCVTPPELETKMNITKGGLVLFSANSNSSCMELSKKIAERLGVEMGKVQVYQEPNRETRVQIQESVRGKDVFIIQTVSKDVNTTIMELLIMVYACKTSCAKSIIGVIPYFPYSKQCKMRKRGSIVSKLLASMMCKAGLTHLITMDLHQKEIQGFFNIPVDNLRASPFLLQYIQEEIPDYRNAVIVAKSPASAKRAQSFAERLRLGIAVIHGEAQDAESDLVDGRHSPPMVRSVAAIHPSLEIPMLIPKEKPPITVVGDVGGRIAIIVDDIIDDVDSFLAAAETLKERGAYKIFVMATHGLLSSDAPRRIEESAIDEVVVTNTIPHEVQKLQCPKIKTVDISMILSEAIRRIHNGESMSYLFRNIGLDD

Columns and labels:
[1] = substrate: Nc1ncnc2c1ncn2CCOCP(=O)(O)O; experiment: (§1) Michaelis rate constant is determined by the Lineweaver and Burk method against adenosine deaminase
[2] = substrate: Nc1ncnc2c1ncn2[C@@H]1O[C@H](CO)[C@@H](O)[C@@H]1O; experiment: as §1
[3] = substrate: Nc1ncnc2c1ncn2CCOCP(=O)(O)O; experiment: Michaelis rate constant is determined by the Lineweaver and Burk method against PRPP synthetase
Summary of the method: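 PRPP synthetase reaction in 10.0 mM potassium phosphate buffer (pH 8.0) with 5.0 mM MgCl₂, 2.5 mM PRPP, 0.04 unit enzyme and AMP or test nucleotide. Reactions ran linearly and were stopped with MeOH after 4 h. Diphosphate or ATP formation was analysed by anion-exchange HPLC. Inhibition was measured at different AMP concentrations plus inhibitor, with 0.002 unit enzyme, 37 °C, 15 min, ATP formation followed by HPLC.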

Row | Protein | Km [1] [µM] | Km [2] [µM] | Km [3] [µM]
1 | B1 | 430 | 43 | –
2 | B2 | – | – | 1500

— ChEMBL document CHEMBL1134666, “Design, synthesis, and biological evaluation of novel nucleoside and nucleotide analogues as agents against DNA viruses and/or retroviruses” (J Med Chem, 2001)
